From patent US9029542B2 (priority 2011, dated 2015)

System: cockspur grass
Test: Weed clearing activity test with culture dish method (ex-vivo plate method)
Type: in vivo
Conditions: 10 μg/g; root length after 5 days; positive = inhibition

SMILES	weed clearing activity, cockspur grass Root (Effect)
O=C(COc1ccc(F)cc1)OCC12COP(=O)(OC1)OC2	89%
CC(Oc1ccc(F)cc1Cl)C(=O)OCC12COP(=S)(OC1)OC2 (stereo not shown)	79%
CC(Oc1cccc(Cl)c1Cl)C(=O)OCC12COP(=S)(OC1)OC2 (stereo not shown)	88%
O=C(COc1ccccc1)OCC12COP(=O)(OC1)OC2	89%
CC(Oc1ccc(Cl)cc1Cl)C(=O)OCC12COP(=O)(OC1)OC2 (stereo not shown)	85%
CC(Oc1ccc(F)cc1)C(=O)OCC12COP(=O)(OC1)OC2 (stereo not shown)	88%
CC(Oc1ccc(Cl)cc1)C(=O)OCC12COP(=S)(OC1)OC2 (stereo not shown)	93%
CC(Oc1ccc(Cl)cc1F)C(=O)OCC12COP(=S)(OC1)OC2 (stereo not shown)	77%

Same assay, conditions: 10 μg/g; stem length after 5 days; positive = inhibition

SMILES	weed clearing activity, cockspur grass Stem (Effect)
O=C(COc1ccc(F)cc1)OCC12COP(=O)(OC1)OC2	18%
CC(Oc1ccc(F)cc1Cl)C(=O)OCC12COP(=S)(OC1)OC2 (stereo not shown)	40%
CC(Oc1cccc(Cl)c1Cl)C(=O)OCC12COP(=S)(OC1)OC2 (stereo not shown)	45%
O=C(COc1ccccc1)OCC12COP(=O)(OC1)OC2	0%
CC(Oc1ccc(Cl)cc1Cl)C(=O)OCC12COP(=O)(OC1)OC2 (stereo not shown)	30%
CC(Oc1ccc(F)cc1)C(=O)OCC12COP(=O)(OC1)OC2 (stereo not shown)	25%
CC(Oc1ccc(Cl)cc1)C(=O)OCC12COP(=S)(OC1)OC2 (stereo not shown)	36%
CC(Oc1ccc(Cl)cc1F)C(=O)OCC12COP(=S)(OC1)OC2 (stereo not shown)	42%

Same assay, conditions: 100 μg/g; root length after 5 days; positive = inhibition

SMILES	weed clearing activity, cockspur grass Root (Effect)
O=C(COc1ccc(F)cc1)OCC12COP(=O)(OC1)OC2	94%
CC(Oc1ccc(F)cc1Cl)C(=O)OCC12COP(=S)(OC1)OC2 (stereo not shown)	97%
CC(Oc1cccc(Cl)c1Cl)C(=O)OCC12COP(=S)(OC1)OC2 (stereo not shown)	97%
O=C(COc1ccccc1)OCC12COP(=O)(OC1)OC2	94%
CC(Oc1ccc(Cl)cc1Cl)C(=O)OCC12COP(=O)(OC1)OC2 (stereo not shown)	91%
CC(Oc1ccc(F)cc1)C(=O)OCC12COP(=O)(OC1)OC2 (stereo not shown)	96%
CC(Oc1ccc(Cl)cc1)C(=O)OCC12COP(=S)(OC1)OC2 (stereo not shown)	97%
CC(Oc1ccc(Cl)cc1F)C(=O)OCC12COP(=S)(OC1)OC2 (stereo not shown)	93%

Same assay, conditions: 100 μg/g; stem length after 5 days; positive = inhibition

SMILES	weed clearing activity, cockspur grass Stem (Effect)
O=C(COc1ccc(F)cc1)OCC12COP(=O)(OC1)OC2	78%
CC(Oc1ccc(F)cc1Cl)C(=O)OCC12COP(=S)(OC1)OC2 (stereo not shown)	47%
CC(Oc1cccc(Cl)c1Cl)C(=O)OCC12COP(=S)(OC1)OC2 (stereo not shown)	59%
O=C(COc1ccccc1)OCC12COP(=O)(OC1)OC2	82%
CC(Oc1ccc(Cl)cc1Cl)C(=O)OCC12COP(=O)(OC1)OC2 (stereo not shown)	43%
CC(Oc1ccc(F)cc1)C(=O)OCC12COP(=O)(OC1)OC2 (stereo not shown)	50%
CC(Oc1ccc(Cl)cc1)C(=O)OCC12COP(=S)(OC1)OC2 (stereo not shown)	43%
CC(Oc1ccc(Cl)cc1F)C(=O)OCC12COP(=S)(OC1)OC2 (stereo not shown)	46%

System: rape
Test: as above
Type: in vivo
Conditions: 10 μg/g; root length after 5 days; positive = inhibition

SMILES	weed clearing activity, rape Root (Effect)
O=C(COc1ccc(F)cc1)OCC12COP(=O)(OC1)OC2	86%
CC(Oc1ccc(F)cc1Cl)C(=O)OCC12COP(=S)(OC1)OC2 (stereo not shown)	96%
CC(Oc1cccc(Cl)c1Cl)C(=O)OCC12COP(=S)(OC1)OC2 (stereo not shown)	96%
O=C(COc1ccccc1)OCC12COP(=O)(OC1)OC2	82%
CC(Oc1ccc(Cl)cc1Cl)C(=O)OCC12COP(=O)(OC1)OC2 (stereo not shown)	94%
CC(Oc1ccc(F)cc1)C(=O)OCC12COP(=O)(OC1)OC2 (stereo not shown)	96%
CC(Oc1ccc(Cl)cc1)C(=O)OCC12COP(=S)(OC1)OC2 (stereo not shown)	97%
CC(Oc1ccc(Cl)cc1F)C(=O)OCC12COP(=S)(OC1)OC2 (stereo not shown)	96%

Same assay, conditions: 10 μg/g; stem length after 5 days; positive = inhibition, negative = promotion

SMILES	weed clearing activity, rape Stem (Effect)
O=C(COc1ccc(F)cc1)OCC12COP(=O)(OC1)OC2	64%
CC(Oc1ccc(F)cc1Cl)C(=O)OCC12COP(=S)(OC1)OC2 (stereo not shown)	62%
CC(Oc1cccc(Cl)c1Cl)C(=O)OCC12COP(=S)(OC1)OC2 (stereo not shown)	80%
O=C(COc1ccccc1)OCC12COP(=O)(OC1)OC2	23%
CC(Oc1ccc(Cl)cc1Cl)C(=O)OCC12COP(=O)(OC1)OC2 (stereo not shown)	71%
CC(Oc1ccc(F)cc1)C(=O)OCC12COP(=O)(OC1)OC2 (stereo not shown)	79%
CC(Oc1ccc(Cl)cc1)C(=O)OCC12COP(=S)(OC1)OC2 (stereo not shown)	91%
CC(Oc1ccc(Cl)cc1F)C(=O)OCC12COP(=S)(OC1)OC2 (stereo not shown)	84%

Same assay, conditions: 100 μg/g; root length after 5 days; positive = inhibition

SMILES	weed clearing activity, rape Root (Effect)
O=C(COc1ccc(F)cc1)OCC12COP(=O)(OC1)OC2	99%
CC(Oc1ccc(F)cc1Cl)C(=O)OCC12COP(=S)(OC1)OC2 (stereo not shown)	98%
CC(Oc1cccc(Cl)c1Cl)C(=O)OCC12COP(=S)(OC1)OC2 (stereo not shown)	98%
O=C(COc1ccccc1)OCC12COP(=O)(OC1)OC2	99%
CC(Oc1ccc(Cl)cc1Cl)C(=O)OCC12COP(=O)(OC1)OC2 (stereo not shown)	97%
CC(Oc1ccc(F)cc1)C(=O)OCC12COP(=O)(OC1)OC2 (stereo not shown)	99%
CC(Oc1ccc(Cl)cc1)C(=O)OCC12COP(=S)(OC1)OC2 (stereo not shown)	99%
CC(Oc1ccc(Cl)cc1F)C(=O)OCC12COP(=S)(OC1)OC2 (stereo not shown)	98%

Same assay, conditions: 100 μg/g; stem length after 5 days; positive = inhibition

SMILES	weed clearing activity, rape Stem (Effect)
O=C(COc1ccc(F)cc1)OCC12COP(=O)(OC1)OC2	97%
CC(Oc1ccc(F)cc1Cl)C(=O)OCC12COP(=S)(OC1)OC2 (stereo not shown)	93%
CC(Oc1cccc(Cl)c1Cl)C(=O)OCC12COP(=S)(OC1)OC2 (stereo not shown)	93%
O=C(COc1ccccc1)OCC12COP(=O)(OC1)OC2	83%
CC(Oc1ccc(Cl)cc1Cl)C(=O)OCC12COP(=O)(OC1)OC2 (stereo not shown)	93%
CC(Oc1ccc(F)cc1)C(=O)OCC12COP(=O)(OC1)OC2 (stereo not shown)	93%
CC(Oc1ccc(Cl)cc1)C(=O)OCC12COP(=S)(OC1)OC2 (stereo not shown)	96%
CC(Oc1ccc(Cl)cc1F)C(=O)OCC12COP(=S)(OC1)OC2 (stereo not shown)	90%
